# Earlier results as cited in patent US20140335172A1, “OPHTHALMOLOGICAL RINSING AGENT AND METHODS THEREFOF” (priority 2013, published 2014).
# Settings: cited from earlier work
compound,measurement,value
C[Si]1(C)O[Si](C)(C)O[Si](C)(C)O[Si](C)(C)O[Si](C)(C)O[Si](C)(C)O1 [Dodecamethylcyclobexasiloxane],"Water Solubility, mg/L at 23° C.",0.053 mg/L
